Measured values as given in PubChem BioAssay AID1745860.

Sequences of proteins named here, by UniProt entry; tags and fusion partners are left off.
UniProt P23975, whole entry, looked up: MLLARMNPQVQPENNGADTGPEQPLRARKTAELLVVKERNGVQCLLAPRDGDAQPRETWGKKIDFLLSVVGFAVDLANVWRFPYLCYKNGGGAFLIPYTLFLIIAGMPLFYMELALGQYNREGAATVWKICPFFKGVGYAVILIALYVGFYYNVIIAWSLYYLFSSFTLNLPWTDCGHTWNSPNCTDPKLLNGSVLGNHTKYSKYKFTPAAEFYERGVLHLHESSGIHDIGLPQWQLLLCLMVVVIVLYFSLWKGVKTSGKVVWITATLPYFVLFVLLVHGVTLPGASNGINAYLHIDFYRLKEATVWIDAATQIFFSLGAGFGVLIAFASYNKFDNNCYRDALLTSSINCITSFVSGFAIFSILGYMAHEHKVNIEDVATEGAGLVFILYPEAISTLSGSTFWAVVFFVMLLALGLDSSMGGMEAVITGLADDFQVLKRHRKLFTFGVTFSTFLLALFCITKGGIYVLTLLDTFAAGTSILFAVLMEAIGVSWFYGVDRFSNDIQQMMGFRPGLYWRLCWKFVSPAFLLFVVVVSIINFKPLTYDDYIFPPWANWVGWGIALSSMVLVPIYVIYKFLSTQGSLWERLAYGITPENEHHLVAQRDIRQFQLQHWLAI

Molecular target: Sodium-dependent noradrenaline transporter (Homo sapiens) (UniProt P23975)
Test: NET transport inhibition via TRACT readout – HEK293 JumpIn overexpressing cells, impedance, dose response (AID 1745860)
Details: HEK293 JumpIn SLC6A2 OE

CC(NC(C)(C)C)C(=O)c1cccc(Cl)c1 (stereo unspecified) showed an IC50 of 12.6 µM.
